# Results taken from PubChem BioAssay AID602410 (Johns Hopkins Ion Channel Center, 2012).
# Protein sequences, listed by entry. Tags and fused reporters are not part of them.
# UniProt O14649, whole entry: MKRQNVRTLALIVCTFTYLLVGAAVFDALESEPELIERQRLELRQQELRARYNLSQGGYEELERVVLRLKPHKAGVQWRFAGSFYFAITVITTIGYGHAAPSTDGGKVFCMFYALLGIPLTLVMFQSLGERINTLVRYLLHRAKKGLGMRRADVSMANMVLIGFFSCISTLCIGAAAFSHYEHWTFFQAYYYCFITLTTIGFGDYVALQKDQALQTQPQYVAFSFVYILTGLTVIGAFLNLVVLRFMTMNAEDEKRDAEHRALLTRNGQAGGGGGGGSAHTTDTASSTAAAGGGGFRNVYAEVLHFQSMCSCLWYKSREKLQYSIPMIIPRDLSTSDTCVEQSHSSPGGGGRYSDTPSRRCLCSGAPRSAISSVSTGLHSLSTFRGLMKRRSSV
# Only a part is listed here, and it is no random draw. Active and inactive are the calls of the source.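 The calls were made as follows: active = B-score under library mean minus 4 SD, starting fluorescence ratio at most library mean plus 5 SD; inactive = the rest.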
# Target: Potassium channel subfamily K member 3 (Homo sapiens) (UniProt O14649)
# Assay: human KCNK3 channel inhibitors, primary screen, CHO cells, FluxOR thallium flux, B-score (AID 602410)
# Conditions: FluxOR fluorescence, at 10 µM
row,SMILES,outcome
1,O=P1(Nc2ncccn2)COc2ccccc2OC1,inactive
2,CN1CCCCC1COC(=O)C1(O)c2ccccc2CCc2ccccc21 (stereo unspecified),inactive
3,COc1ccccc1OP(C)(=O)Nc1c(C)cccc1C (stereo unspecified),inactive
4,CCOC(=O)C(CC)C1=NC(C)(C)Cc2ccccc21.O=[N+]([O-])c1cc([N+](=O)[O-])c(O)c([N+](=O)[O-])c1 (stereo unspecified),inactive
5,O=[N+]([O-])c1cc([N+](=O)[O-])c(Nc2nnnn2CCO)c([N+](=O)[O-])c1,inactive
6,CC1=C2N=C(C=C3N=C(C(C)=C4[N-][C@@](C)([C@@H]5N=C1[C@](C)(CCC(=O)NC[C@@H](C)OP(=O)([O-])O[C@H]1[C@@H](O)[C@@H](n6cnc7cc(C)c(C)cc76)O[C@@H]1CO)[C@H]5CC(N)=O)[C@@](C)(CC(N)=O)[C@@H]4CCC(N)=O)[C@@](C)(CC(N)=O)[C@@H]3CCC(N)=O)C(C)(C)[C@@H]2CCC(N)=O.[C-]#N.[Co+3],inactive
7,CN(C)C1(CNC(=O)c2ccc(S(C)(=O)=O)cc2)CCCCC1,inactive
8,CCCC1OP(=O)(Nc2ccccc2)OCC1CC (stereo unspecified),inactive
9,O=C(/C=C/c1ccccc1)OC1CN2CCC1CC2 (stereo unspecified),inactive
10,Cc1ccc(C(=O)OC2CN3CCC2CC3)cc1 (stereo unspecified),inactive
11,CC1CCC(C(C)C)C(OP(=O)(Nc2ccccn2)c2ccccc2)C1 (stereo unspecified),inactive
12,Cc1nn(-c2ccccc2)c2c1P(=O)(N1CCOCC1)N(C)C(c1ccccc1)=N2 (stereo unspecified),inactive
13,COc1cc(C2NCCC3(OCCO3)C2(C)C)cc(OC)c1OC.O=[N+]([O-])c1cc([N+](=O)[O-])c(O)c([N+](=O)[O-])c1 (stereo unspecified),inactive
14,CN(C(=O)Cc1ccc(Cl)c(Cl)c1)[C@@H]1CCCC[C@H]1N1CCCC1,inactive
15,CC(C)/C=N\N=C(\N)N[N+](=O)[O-],inactive
16,Cc1nc2ccc3ccccc3c2s1.O=[N+]([O-])c1cc([N+](=O)[O-])c(O)c([N+](=O)[O-])c1,inactive
17,CC1(CBr)Cn2c(nc3ccccc3c2=O)S1 (stereo unspecified),inactive
18,O=[N+]([O-])c1cc([N+](=O)[O-])c(-c2cnn(-c3ccccc3)c2)c([N+](=O)[O-])c1,inactive
19,COc1ccccc1CNC(=O)COC(=O)C(O)(c1ccccc1)c1ccccc1,inactive
20,CC(C)(C)C(=O)NC(Sc1ncccn1)C(Cl)(Cl)Cl (stereo unspecified),inactive
21,Clc1n[nH]nc1-c1nn[nH][15n]1,inactive
22,CCOP(=O)(NC(=NC(C)c1ccccc1)NC(C)c1ccccc1)OCC (stereo unspecified),inactive
23,O=[N+]([O-])c1cc([N+](=O)[O-])c(-n2nnc3ccccc32)c([N+](=O)[O-])c1,inactive
24,CCC1=CC2Cc3nc4ccc(Cl)cc4c(N)c3C(C1)C2 (stereo unspecified),inactive
25,O=P1(Nc2ccccn2)COc2ccccc2OC1,inactive
26,CCOP(=O)(Nc1ccc(C)cn1)OCC,inactive
